# Laboratory results from ChEMBL document CHEMBL1145447, “Synthetic studies of neoclerodane diterpenes from Salvia divinorum: preparation and opioid receptor activity of salvinicin analogues” (J Med Chem, 2007).
# Amino acid sequences for entries named in this document (tags omitted). A change or cut given only in a name is not applied to a line headed by its entry.
# UniProt P41145: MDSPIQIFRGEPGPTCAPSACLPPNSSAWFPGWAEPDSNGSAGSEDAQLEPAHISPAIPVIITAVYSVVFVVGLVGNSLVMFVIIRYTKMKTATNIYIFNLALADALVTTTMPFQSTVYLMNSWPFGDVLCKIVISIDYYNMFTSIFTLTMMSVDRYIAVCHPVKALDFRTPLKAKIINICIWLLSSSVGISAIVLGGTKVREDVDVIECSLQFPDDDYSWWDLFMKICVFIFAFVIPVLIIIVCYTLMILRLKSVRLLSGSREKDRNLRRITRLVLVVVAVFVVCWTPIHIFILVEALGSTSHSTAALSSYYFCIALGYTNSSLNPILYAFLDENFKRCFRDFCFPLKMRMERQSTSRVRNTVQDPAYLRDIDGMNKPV
# Target: Kappa-type opioid receptor (Homo sapiens, UniProt P41145)
# Assay: Displacement of [125I]IOXY from human kappa opioid receptor expressed in CHO cells
# Type: cell-based
# Procedure, shortened: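 Membranes from CHO cells stably transfected with the respective human opioid receptor cDNA (hMOR-, hDOR-, hKOR-CHO). Incubation in 50 mM Tris-HCl pH 7.4 with bacitracin, bestatin, leupeptin and chymostatin. Nonspecific binding is defined with 10 µM naloxone. Ki is the mean ± SD of at least two independent determinations.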
compound,measurement,value
COC(=O)[C@@H]1C[C@H](O)C(=O)[C@H]2[C@@]1(C)CC[C@H]1C(=O)O[C@H](c3ccoc3)C[C@]21C [SALVINORIN B],Ki,280 nM
